These results are taken from patent US20130184251A1, “HETEROAROMATIC AND AROMATIC PIPERAZINYL AZETIDINYL AMIDES AS MONOACYLGLYCEROL LIPASE INHIBITORS” (Janssen Pharmaceutica, NV, priority 2009, published 2013).

Chains of the proteins cited; added tags and fusions are not shown. Lines headed by an entry give the natural chain unless they say otherwise; changes in a name come on top.
UniProt Q99685: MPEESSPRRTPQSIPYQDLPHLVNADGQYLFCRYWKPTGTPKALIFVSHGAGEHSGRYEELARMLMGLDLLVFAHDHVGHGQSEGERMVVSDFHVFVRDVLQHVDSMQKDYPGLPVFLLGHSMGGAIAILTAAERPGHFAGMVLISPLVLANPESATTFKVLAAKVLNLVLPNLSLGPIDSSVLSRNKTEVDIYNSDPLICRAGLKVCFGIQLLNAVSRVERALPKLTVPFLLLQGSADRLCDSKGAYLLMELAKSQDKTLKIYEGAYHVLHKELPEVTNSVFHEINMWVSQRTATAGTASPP

By Kd is commonly meant the concentration at which binding is half-saturated. Broadly, the IC50 is the point on the concentration scale where inhibition reaches its midpoint.

Experiment [1] addresses T1, purified mutant MGL (mut-MGLL 11-313 L179S L186S) (Homo sapiens, UniProt Q99685, L169S/L176S). As to the kind of experiment: MGL ThermoFluor assay. The conditions noted are these: read-out: Ex. 4 Kd. In general terms: Differential scanning fluorimetry follows unfolding on heating by fluorescence.
Experiment [2] has as its target T1, purified mutant MGL (mut-MGLL 11-313 L179S L186S). Put plainly: MGL enzyme activity assay (mutant MGL). The conditions noted are these: read-out: Ex. 3 (mutant) IC50; mutant MGL (mut-MGLL 11-313 L179S L186S).

As for “1-{1-[(1,5-Biphenyl-1H-pyrazol-3-yl)carbonyl]azetidin-3-yl}-4-pyridin-2-ylpiperazine”, the Kd in experiment [1] stood at 952 nM. In addition, the IC50 in experiment [2] turned out to be 749 nM.
